# Experimental data: patent publication US8808664B2, “Lipidated glycoprotein particles and methods of use” (Ramot at Tel-Aviv University Ltd., priority 2004, dated 2014)
# Assay: Efficiency of entrapment of drugs/bioactive agents in collagen disks or particles
# Format: physicochemical
# Method: Efficiency of entrapment of drugs/bioactive agents in the collagen disks or particles, and kinetics of drug efflux for small molecular weight drugs was determined utilizing absorption spectra (mostly in an ELISA plate reader), fluorescence emission spectra (mostly in a fluorescence plate reader), and HPLC. Half-life data was processed according to a theoretical framework previously developed for liposomes (Margalit et al., 1991), incorporated herein in its entirety) which yields the rate constant for drug efflux. Typical results of the efficiency of entrapment are listed in Tables 1 and 2, for the particles and disks, respectively.
substance,measurement,setting,value
Interferon alpha: the antiviral protein interferon 2α-(INFα),% Entrapment,Collagen Disks (1-20 mm in a diameter),93.6 ± 1.3%
same,% Entrapment,Collagen particles (0.5-10 μm in diameter),88.2 ± 5.1%
